Assay results published in US20150239981A1.

Sequences of proteins named here, by UniProt entry; tags and fusion partners are left off. Residues count along the entry.
UniProt P12314, 16-288 limits assumed: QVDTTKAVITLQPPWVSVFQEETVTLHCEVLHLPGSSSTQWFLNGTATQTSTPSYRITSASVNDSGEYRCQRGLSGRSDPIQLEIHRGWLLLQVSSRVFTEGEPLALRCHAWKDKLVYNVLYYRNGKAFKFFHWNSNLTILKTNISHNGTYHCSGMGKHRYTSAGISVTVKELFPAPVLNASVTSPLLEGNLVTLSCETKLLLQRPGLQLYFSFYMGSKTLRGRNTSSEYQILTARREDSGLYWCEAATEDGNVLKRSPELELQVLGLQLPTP

Biological target: FcγRI (human) (UniProt P12314)
Experiment: SPR Biacore T100, FcγRI captured by pentaHis antibody, antibody as analyte 0-100 nM

Kd: 6 nM
Substance: IgG1 P329G (antibody not named, Tables 2A and 2B)
